In this assay the target is T1, prostasin (Homo sapiens, UniProt Q16651).
T1 construct: made in house; host or cells: CHO cells (transient transfection, pRK5E); purified from conditioned medium on aprotinin-agarose
As to the kind of experiment: Enzyme inhibition assay (amidolytic activity of prostasin towards S2765). Format: biochemical. As to conditions: prostasin 3 nM. As to the method:
The increase in absorbance at 405 nm was monitored on a kinetic microplate reader (Molecular Devices, Sunnyvale, Calif.). The linear rates of the increase in absorbance were expressed as percentage activities (100%×vi/v0). […] At least three independent experiments were performed for each inhibitor.

The chains behind the UniProt entries cited, without tags or fusion partners. Residues count along the entry.
UniProt Q16651, 45-322 limits assumed: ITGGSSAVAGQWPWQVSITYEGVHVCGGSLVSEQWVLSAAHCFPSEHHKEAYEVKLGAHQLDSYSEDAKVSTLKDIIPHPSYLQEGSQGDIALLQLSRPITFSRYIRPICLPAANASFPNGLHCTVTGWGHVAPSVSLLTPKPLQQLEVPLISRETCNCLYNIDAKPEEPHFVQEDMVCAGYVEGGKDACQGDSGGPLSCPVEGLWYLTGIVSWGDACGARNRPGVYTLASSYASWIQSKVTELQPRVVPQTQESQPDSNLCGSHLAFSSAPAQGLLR

For Aprotinin [reference compound], where the note is “substrate S2765 0.05 mM, TT buffer, 20 min preincubation at room temperature, averages ± S.D. of at least three independent experiments, read-out: IC50 (nM), effects of inhibitors on the activity of prostasin”, the 50% inhibitory concentration (IC50) (in general, the concentration at which inhibition is half-maximal) came out at 1.2 ± 0.1 nM.
For “KD1: N-terminal Kunitz domain of HAI-1B, amino acids Thr246-Val303 of HAI-1B precursor, expressed in E. coli (SEQ ID NO:2) (TEDYCLASNKVGRCRGSFPRWYYDPTEQICKSFVYGGCLGNKNNYLREEECILACRGV; listed as Homo sapiens)”, for the setting “substrate S2765”, the “inhibition of prostasin enzymatic activity (in words)” value is given as “significantly more potent prostasin inhibitor than sHAI-1B”.

The values above are taken from US7622265B2, “Methods and compositions for modulating prostasin” (Genentech, Inc., priority 2005, dated 2009).
